Our source for the Km, kcat and kcat/Km values is ChEMBL document CHEMBL1687781, “Comparative biochemical and computational study of the role of naturally occurring mutations at Ambler positions 104 and 170 in GES β-lactamases” (Antimicrob Agents Chemother, 2010).

The nature of assay [1]: Activity of Beta-lactamase GES-1 E104, G170 mutant. In short, it runs like this:
(§1)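 Purified GES enzymes, released by mild sonication in 20 mM Tris pH 8.0, then Q-Sepharose and S-Sepharose chromatography, >95% pure by SDS-PAGE, in 50 mM KPi pH 7.6. Protein measured by Bradford. β-Lactam substrates hydrolysed at various concentrations, 25°C, in 50 mM NaCl, 50 mM MOPS pH 7.0.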

Assay [2] is described as follows: Activity of Beta-lactamase GES-7 K104, G170 mutant. In short, it runs like this: as §1
The nature of assay [3]: Activity of Beta-lactamase GES-2 E104, N170 mutant. In short, it runs like this:
as §1

Assay [4] is described as follows: Activity of Beta-lactamase GES-5 E104, S170 mutant. In short, it runs like this: as §1
The nature of assay [5]: Activity of Beta-lactamase GES-6 K104, S170 mutant. A digest of the protocol: as §1
Assay [6] is described as follows: Ratio of Kcat to Km for Beta-lactamase GES-1 E104, G170 mutant. A digest of the protocol: as §1
Assay [7] can be described thus: Ratio of Kcat to Km for Beta-lactamase GES-7 K104, G170 mutant. A digest of the protocol: as §1
The nature of assay [8]: Ratio of Kcat to Km for Beta-lactamase GES-2 E104, N170 mutant. In short, it runs like this:
as §1

Assay [9] in a line: Ratio of Kcat to Km for Beta-lactamase GES-5 E104, S170 mutant. A digest of the protocol:
as §1

Assay [10] is described as follows: Ratio of Kcat to Km for Beta-lactamase GES-6 K104, S170 mutant. In short, it runs like this:
as §1

Assay [11] can be described thus: Ratio of Kcat to Km for Beta-lactamase GES-13 K104, N170 mutant. In short, it runs like this: as §1

Turning to `CC(=O)OCC1=C(C(=O)O)N2C(=O)[C@@H](NC(=O)Cc3cccs3)[C@H]2SC1`, the Km in [1] worked out at 87.8 µM; in assay [2] it was 23.7 µM; in [3], 53.9 µM; in assay [4] it was 61.1 µM; in assay [5] it was 54 µM. Moreover, the kcat in assay [1] turned out to be 218 s⁻¹; in assay [2] it was 313 s⁻¹; in [3], 2.94 s⁻¹; in assay [4] it was 167 s⁻¹; in assay [5], 260 s⁻¹. The kcat/Km stood at 2.48e+06 M⁻¹ s⁻¹ in assay [6]; 1.32e+07 M⁻¹ s⁻¹ in assay [7]; 50000 M⁻¹ s⁻¹ in assay [8]; 2.73e+06 M⁻¹ s⁻¹ in [9]; 4.81e+06 M⁻¹ s⁻¹ in assay [10]; 100000 M⁻¹ s⁻¹ in assay [11].

As a reminder, the Km is the concentration of substrate that gives half-maximal velocity. Broadly, the kcat is the maximal rate divided by the concentration of active sites. As usually defined, the kcat/Km is the second-order rate constant that governs catalysis at low substrate concentration.
